How the values were obtained:
Type in all cases: cell-based
[1] = biological target: T1, hTRPA1 (Homo sapiens, UniProt O75762); test: Membrane potential dye fluorescence assay (FLIPR/FLEXstation), activation of hTRPA1 in transfected HEK293 cells
T1 construct: The full length hTRPA1 was amplified by PCR with Kpn1 and Xho1 restriction enzyme sites; expressed in transfected cells; also transient transfection
Protocol: Once expression of TRPA1 was confirmed, 100 μl of the Blue or Red FMP dye (Molecular Devices) was added to each well of plates seeded with the transiently transfected cells. The plate was then incubated in a 37° C./5% CO2 incubator for 1 hour. The plate was read in a FLEXStation microplate reader (Molecular Devices) with an excitation of 530 nm and an emission of 565 nm. The fluorescence was monitored for 3 minutes upon exposure of the cells to a TRPA1 activating agent (e.g., cinnamaldehyde).
(§1) Samples in a 384-well plate were evaluated in a 5 minute assay on the FLIPR-Tetra™ (Molecular Devices). The assay was performed on a FLIPR™ using the excitation 510-545 nm and emission 565-625 nm filter sets. TRPA1-Transfected HEK cells, 15,000/well, were seeded overnight on poly-D-lysine coated 384 well plates in 20 μl media. Membrane Potential Assay Dye Red (Molecular Devices), 20 μl/well, was added and the plates incubated for 1 hour in a 37° C. and 5% CO2 incubator. The plates were then removed from the incubator and equilibrated to room temperature for 15 minutes before reading on the FLIPR®. The plates were read on the FLIPR® for a total of 3 minutes. Baseline fluorescence was obtained on the FLIPR® for 10 seconds followed by addition (typically 10 μl) of each agonist by the FLIPR® and read for an additional 2 minutes and 50 seconds.

Chains of the proteins cited; added tags and fusions are not shown. Lines headed by an entry give the natural chain unless they say otherwise; changes in a name come on top.
UniProt O75762, whole entry: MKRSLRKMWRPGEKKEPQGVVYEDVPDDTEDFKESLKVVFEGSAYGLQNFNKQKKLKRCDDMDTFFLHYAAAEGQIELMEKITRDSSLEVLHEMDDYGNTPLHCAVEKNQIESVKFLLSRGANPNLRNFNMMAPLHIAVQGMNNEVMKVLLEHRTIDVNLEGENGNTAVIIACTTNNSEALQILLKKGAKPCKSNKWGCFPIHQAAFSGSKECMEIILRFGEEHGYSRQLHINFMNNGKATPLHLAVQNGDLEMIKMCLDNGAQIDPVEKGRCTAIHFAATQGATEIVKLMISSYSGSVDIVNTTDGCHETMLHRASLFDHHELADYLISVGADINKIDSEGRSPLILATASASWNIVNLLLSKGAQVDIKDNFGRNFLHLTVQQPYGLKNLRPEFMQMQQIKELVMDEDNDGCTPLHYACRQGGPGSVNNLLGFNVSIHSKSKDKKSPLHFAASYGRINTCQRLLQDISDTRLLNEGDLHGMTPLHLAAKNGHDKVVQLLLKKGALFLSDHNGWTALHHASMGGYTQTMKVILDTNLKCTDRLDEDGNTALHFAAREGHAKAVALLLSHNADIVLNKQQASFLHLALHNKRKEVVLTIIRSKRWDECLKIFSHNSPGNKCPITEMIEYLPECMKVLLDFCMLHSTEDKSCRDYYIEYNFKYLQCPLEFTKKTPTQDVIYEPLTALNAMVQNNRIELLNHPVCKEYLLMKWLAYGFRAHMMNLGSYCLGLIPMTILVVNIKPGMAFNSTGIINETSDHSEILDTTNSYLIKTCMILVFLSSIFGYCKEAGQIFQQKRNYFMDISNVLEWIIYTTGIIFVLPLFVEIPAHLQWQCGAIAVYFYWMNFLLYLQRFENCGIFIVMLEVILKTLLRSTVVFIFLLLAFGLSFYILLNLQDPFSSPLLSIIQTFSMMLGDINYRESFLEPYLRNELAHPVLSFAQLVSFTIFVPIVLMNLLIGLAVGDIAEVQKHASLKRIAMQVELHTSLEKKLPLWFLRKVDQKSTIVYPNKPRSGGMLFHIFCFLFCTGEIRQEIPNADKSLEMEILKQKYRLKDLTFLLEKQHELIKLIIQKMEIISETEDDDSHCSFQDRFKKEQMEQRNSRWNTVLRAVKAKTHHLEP
UniProt Q8NER1, whole entry: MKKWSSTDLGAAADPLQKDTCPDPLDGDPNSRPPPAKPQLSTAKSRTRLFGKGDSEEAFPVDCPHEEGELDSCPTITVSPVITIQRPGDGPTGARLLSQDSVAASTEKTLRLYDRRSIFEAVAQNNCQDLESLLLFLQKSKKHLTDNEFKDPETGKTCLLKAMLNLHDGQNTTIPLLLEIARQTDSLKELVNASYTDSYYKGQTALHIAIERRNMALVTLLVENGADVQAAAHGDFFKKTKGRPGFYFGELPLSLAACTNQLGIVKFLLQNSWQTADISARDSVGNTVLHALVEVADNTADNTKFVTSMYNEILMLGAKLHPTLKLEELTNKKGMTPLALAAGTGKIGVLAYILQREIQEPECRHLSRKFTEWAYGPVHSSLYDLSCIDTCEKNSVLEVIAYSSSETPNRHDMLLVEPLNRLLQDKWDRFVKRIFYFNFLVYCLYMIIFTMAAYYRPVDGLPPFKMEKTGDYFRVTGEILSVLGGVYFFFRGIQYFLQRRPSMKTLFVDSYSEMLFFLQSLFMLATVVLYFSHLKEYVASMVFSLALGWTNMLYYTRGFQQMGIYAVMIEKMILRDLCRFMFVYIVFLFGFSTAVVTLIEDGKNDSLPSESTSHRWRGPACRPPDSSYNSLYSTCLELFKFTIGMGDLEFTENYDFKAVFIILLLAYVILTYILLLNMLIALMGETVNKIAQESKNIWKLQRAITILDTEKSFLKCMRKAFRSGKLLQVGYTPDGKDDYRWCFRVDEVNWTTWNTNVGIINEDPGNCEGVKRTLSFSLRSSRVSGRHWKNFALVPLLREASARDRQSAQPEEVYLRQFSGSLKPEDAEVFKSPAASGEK
UniProt Q8TD43: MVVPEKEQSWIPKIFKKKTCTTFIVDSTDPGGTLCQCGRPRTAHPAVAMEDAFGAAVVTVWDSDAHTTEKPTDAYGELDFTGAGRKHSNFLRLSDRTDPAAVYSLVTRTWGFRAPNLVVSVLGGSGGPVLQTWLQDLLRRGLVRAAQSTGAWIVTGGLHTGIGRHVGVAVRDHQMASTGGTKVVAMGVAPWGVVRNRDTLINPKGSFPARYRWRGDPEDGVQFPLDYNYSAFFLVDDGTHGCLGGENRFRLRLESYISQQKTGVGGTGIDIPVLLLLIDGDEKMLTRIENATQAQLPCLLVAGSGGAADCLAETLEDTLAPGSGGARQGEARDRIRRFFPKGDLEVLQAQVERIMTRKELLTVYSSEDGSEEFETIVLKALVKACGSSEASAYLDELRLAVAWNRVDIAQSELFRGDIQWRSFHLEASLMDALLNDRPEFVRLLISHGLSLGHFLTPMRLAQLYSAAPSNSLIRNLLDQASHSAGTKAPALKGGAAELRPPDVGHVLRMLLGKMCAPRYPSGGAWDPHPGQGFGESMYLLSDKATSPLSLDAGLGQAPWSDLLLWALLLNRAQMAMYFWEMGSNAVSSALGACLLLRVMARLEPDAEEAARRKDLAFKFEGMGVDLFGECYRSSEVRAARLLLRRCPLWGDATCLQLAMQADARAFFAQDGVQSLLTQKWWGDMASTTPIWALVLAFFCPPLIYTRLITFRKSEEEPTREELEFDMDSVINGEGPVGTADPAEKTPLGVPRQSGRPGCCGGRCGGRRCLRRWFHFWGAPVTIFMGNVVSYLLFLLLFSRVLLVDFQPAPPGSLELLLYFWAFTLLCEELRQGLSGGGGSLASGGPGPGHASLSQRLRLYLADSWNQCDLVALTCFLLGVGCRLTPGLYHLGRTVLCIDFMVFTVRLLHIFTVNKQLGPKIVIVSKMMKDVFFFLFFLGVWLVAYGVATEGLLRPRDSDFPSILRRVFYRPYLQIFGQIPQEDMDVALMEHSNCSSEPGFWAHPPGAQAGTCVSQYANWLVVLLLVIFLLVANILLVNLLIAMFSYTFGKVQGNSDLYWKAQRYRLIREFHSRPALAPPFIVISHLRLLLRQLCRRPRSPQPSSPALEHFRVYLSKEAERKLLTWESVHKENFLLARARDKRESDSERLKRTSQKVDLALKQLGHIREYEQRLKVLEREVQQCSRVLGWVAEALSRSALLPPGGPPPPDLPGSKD

[2] = biological target: T2, hTRPV1 (Homo sapiens, UniProt Q8NER1); test: Membrane potential dye fluorescence assay, HEK293 cells expressing hTRPV1
T2 construct: expressed in transfected cells
Protocol: as §1
(§2) HEK293 cells were stably transfected with one of hTRPA1, hTRPV1 or hTRPM5. CHO cells were stably transfected with one of hTRPM4B or TRPM5. Parental HEK293 and CHO cells were also used as a negative control.

[3] = biological target: T3, hTRPM4B (Homo sapiens, UniProt Q8TD43); test: Membrane potential dye fluorescence assay, CHO cells expressing hTRPM4B
T3 construct: expressed in transfected cells
Protocol: as §1, §2

[4] = biological target: T4, hTRPM5 (Homo sapiens, UniProt Q9NZQ8); test: Membrane potential dye fluorescence assay, HEK293 or CHO cells expressing hTRPM5
T4 construct: expressed in transfected cells
T4 sequence (Q9NZQ8 1-1165): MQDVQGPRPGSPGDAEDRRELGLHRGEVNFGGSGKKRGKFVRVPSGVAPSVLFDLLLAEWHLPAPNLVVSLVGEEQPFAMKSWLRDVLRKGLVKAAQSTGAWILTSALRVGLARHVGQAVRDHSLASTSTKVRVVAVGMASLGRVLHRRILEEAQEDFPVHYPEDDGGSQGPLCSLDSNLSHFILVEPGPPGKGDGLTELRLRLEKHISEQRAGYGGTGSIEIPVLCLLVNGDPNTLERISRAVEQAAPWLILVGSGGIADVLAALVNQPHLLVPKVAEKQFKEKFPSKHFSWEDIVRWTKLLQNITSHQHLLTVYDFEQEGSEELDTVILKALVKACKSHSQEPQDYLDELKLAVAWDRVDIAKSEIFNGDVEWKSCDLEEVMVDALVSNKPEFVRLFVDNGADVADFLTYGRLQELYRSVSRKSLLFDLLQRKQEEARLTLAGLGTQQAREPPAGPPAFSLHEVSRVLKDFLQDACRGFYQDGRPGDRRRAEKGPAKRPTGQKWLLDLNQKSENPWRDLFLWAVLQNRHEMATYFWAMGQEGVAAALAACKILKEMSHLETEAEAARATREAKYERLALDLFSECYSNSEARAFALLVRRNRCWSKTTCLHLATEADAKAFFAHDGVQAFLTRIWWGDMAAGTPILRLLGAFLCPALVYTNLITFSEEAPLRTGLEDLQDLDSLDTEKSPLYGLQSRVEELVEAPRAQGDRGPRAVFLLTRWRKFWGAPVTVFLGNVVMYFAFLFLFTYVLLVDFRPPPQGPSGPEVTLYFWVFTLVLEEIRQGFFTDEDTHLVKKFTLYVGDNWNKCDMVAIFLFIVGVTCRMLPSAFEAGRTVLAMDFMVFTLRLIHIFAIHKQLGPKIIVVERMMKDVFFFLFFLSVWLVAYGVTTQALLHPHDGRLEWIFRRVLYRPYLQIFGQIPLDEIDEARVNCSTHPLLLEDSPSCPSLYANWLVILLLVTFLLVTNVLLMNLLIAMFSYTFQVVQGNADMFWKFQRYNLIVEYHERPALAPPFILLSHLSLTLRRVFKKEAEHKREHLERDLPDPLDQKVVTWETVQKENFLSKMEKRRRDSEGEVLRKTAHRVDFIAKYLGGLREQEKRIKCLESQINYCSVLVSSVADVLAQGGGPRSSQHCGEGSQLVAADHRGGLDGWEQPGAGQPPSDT
Protocol: as §1, §2

[5] = biological target: T1, hTRPA1; test: Modulation of agonist-activated TRPA1 in HEK293 cells expressing hTRPA1 (membrane potential dye); conditions: pretreated with camphor
Protocol: as §1
(§3) Appropriate control experiments are performed and can easily be determined by the skilled artisan.
(§4) HEK293 cells and CHO cells expressing TRPA1 were subjected to the assay described in Example 2.

[6] = biological target: T1, hTRPA1; test: Modulation of agonist-activated TRPA1 in CHO cells expressing hTRPA1 (membrane potential dye); conditions: pretreated with camphor
Protocol: as §1, §3, §4

IC50 [5] | IC50 [6] | SMILES | EC50 [1] | TRPA1 activation / agonist activity (in words) [1] | response of cells expressing hTRPV1 (in words) [2] | response of cells expressing hTRPM4B (in words) [3] | response of cells expressing hTRPM5 (in words) [4]
– | – | Cc1ccc(O)cc1C [3,4-dimethylphenol] | 123 ± 27 µM | generated an increase in relative fluorescence | did not generate the same increase in relative fluorescence | did not generate the same increase in relative fluorescence | did not generate the same increase in relative fluorescence
300 µM | 150 µM | CC12CCC(CC1=O)C2(C)C (stereo not shown) [Camphor] | – | – | – | – | –

Source: patent publication US7674594B2, “Screening assay for inhibitors of TRPA1 activation by a lower alkyl phenol” (Redpoint Bio Corporation, priority 2006, dated 2010)
